## Binding of CDR-mutated scFvs to a peptide of the spike HR2 region

Reference: Li et al. 2023, doi:10.1038/s41467-023-39022-2. File: FLAb, binding data.

Antigen: PDVDLGDISGINAS, a 14-residue peptide of the SARS-CoV-2 spike HR2 region.

Each scFv is VH, the linker GGGGSGGGGSGGGGS, VL, as in the parent Ab-14, and differs from it in the CDRs of the heavy chain only.
VH: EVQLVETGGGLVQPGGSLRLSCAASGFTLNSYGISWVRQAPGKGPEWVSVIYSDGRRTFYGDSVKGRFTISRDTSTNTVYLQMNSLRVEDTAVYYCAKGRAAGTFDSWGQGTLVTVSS
VL: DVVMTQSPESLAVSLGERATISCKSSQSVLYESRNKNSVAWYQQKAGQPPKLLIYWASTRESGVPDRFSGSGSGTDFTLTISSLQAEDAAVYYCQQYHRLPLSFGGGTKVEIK

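The starting antibody came from a phage panning campaign against this peptide. Designed CDR sequences, proposed from the first random library and measured here. Several design methods are mixed in this list. Affinity was read by AlphaSeq, a pooled yeast mating assay with surface-displayed partners. After mating in shaken culture at 30 °C for 16 h, diploids were selected and their barcode pairs sequenced. Scores were corrected for input abundance and mapped to Kd with protein pairs of known affinity run in the same pool. There are six technical replicates.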

Positions count from residue 1 of the parent VH; G26T puts T in place of G. This list holds designs with at most six substitutions. Each Kd is an estimate from the mating assay, the geometric mean of the replicates in which the pair was seen; lower is stronger. Where no diploid with the target was found in any replicate, the entry reads "nd": below detection, most likely a poor binder, though not proof of it.

The variant G26T T28K V64T A101D S107W showed nd (0 of 6 replicates; controls 0 of 18). With R56F F105N the result was nd (0 of 6 replicates; controls 0 of 18). With T58K G61S K65R A101E S107Y the result was 4.5 nM (5 of 6 replicates; controls 0 of 18). The variant N30G A101N A102R S107D showed nd (0 of 6 replicates; controls 0 of 18). For T28D R100W A101T S107A, the assay gave 1.2 nM (6 of 6 replicates; controls 0 of 18). The variant T28S S31M F59A G61I gave 3.4 nM (6 of 6 replicates; controls 0 of 18). For T28D S31E G61S T104F, the assay gave 70 nM (1 of 6 replicates; controls 0 of 18). The variant S31E G103L S107E gave nd (0 of 6 replicates; controls 0 of 18). The variant S31E G61T A101F S107M gave 12 nM (6 of 6 replicates; controls 0 of 18).

The variant T28N G61F R100Q A101T showed nd (0 of 6 replicates; controls 0 of 18). The variant T28S S31Q G61S T104H gave nd (0 of 6 replicates; controls 1 of 18). For G26P T28D G61I A101Q, the assay gave 17 nM (3 of 6 replicates; controls 0 of 18). The variant G26H T28S G61H R100Q A101T gave 1.4 nM (6 of 6 replicates; controls 0 of 18). The variant F59Q G61S S63Q V64S gave 45 nM (1 of 6 replicates; controls 1 of 18). The variant G61Q F105I gave 30 nM (3 of 6 replicates; controls 0 of 18). With S31E G103D D106W the result was nd (0 of 6 replicates; controls 0 of 18). With S63D A101E the result was 6.1 nM (6 of 6 replicates; controls 0 of 18). The variant S31H G61K gave 72 nM (2 of 6 replicates; controls 0 of 18).

The variant G61S A102G S107T gave 8.6 nM (5 of 6 replicates; controls 0 of 18). The variant G26W G61A R100Q A101L gave 1.5 nM (6 of 6 replicates; controls 0 of 18). The variant T28E G61Q A101V showed 20 nM (5 of 6 replicates; controls 1 of 18). For F105D, the assay gave nd (0 of 6 replicates; controls 0 of 18). For T28S S53A G55M D106T, the assay gave nd (0 of 6 replicates; controls 0 of 18). For S31D G61T R100K, the assay gave 1.1 nM (6 of 6 replicates; controls 0 of 18). The variant F27E S31D S107T showed 96 nM (5 of 6 replicates; controls 0 of 18). For T28N S63D R100K A101T, the assay gave 1.2 nM (6 of 6 replicates; controls 0 of 18). The variant T28Q S31E A101T S107V gave 770 pM (6 of 6 replicates; controls 1 of 18).

The variant F27N S31D I51D G61S R100T A102R showed nd (0 of 6 replicates; controls 0 of 18). The variant G99V A101L gave nd (0 of 6 replicates; controls 0 of 18). The variant T28E S31N S63R R100Q A101T gave 5.4 nM (5 of 6 replicates; controls 0 of 18). The variant T28C T58N S107I gave nd (0 of 6 replicates; controls 0 of 18). The variant S53A F59A A101V F105S gave 690 pM (2 of 6 replicates; controls 0 of 18). The variant S31D G55Q R100T showed nd (0 of 6 replicates; controls 0 of 18). For N30T A101V S107M, the assay gave 15 nM (6 of 6 replicates; controls 0 of 18). The variant S31E D106E S107T showed 5.5 nM (6 of 6 replicates; controls 0 of 18). The variant S31E G61A A101F showed 2.5 nM (6 of 6 replicates; controls 1 of 18).

With S31D I51D the result was nd (0 of 6 replicates; controls 0 of 18). The variant G26R N30D S31E A101I showed 20 nM (4 of 6 replicates; controls 0 of 18). The variant S31E R56M R100S A101E showed 500 pM (6 of 6 replicates; controls 0 of 18). The variant S63G A101E S107T showed 3.7 nM (6 of 6 replicates; controls 0 of 18). For T28E G61A A101T, the assay gave 6.6 nM (4 of 6 replicates; controls 0 of 18). The variant T28Q S31E S63Q A101T D106S showed nd (0 of 6 replicates; controls 0 of 18). For S31D S63A A101T S107A, the assay gave 1.5 nM (6 of 6 replicates; controls 0 of 18). The variant S31Q S53A R100E F105S gave nd (0 of 6 replicates; controls 0 of 18). For S31Q R56S S107H, the assay gave nd (0 of 6 replicates; controls 0 of 18).

The variant R56K G61I R100K gave nd (0 of 6 replicates; controls 1 of 18). The variant T28S S31E S63D R100E S107K gave 22 nM (3 of 6 replicates; controls 0 of 18). The variant T28N S31T G61V R100E gave 15 nM (6 of 6 replicates; controls 0 of 18). The variant N30E D106E showed nd (0 of 6 replicates; controls 1 of 18).

The 6 strongest on average among those seen in every replicate, once more:

For S31E R56M R100S A101E, the assay gave 500 pM (6 of 6 replicates; controls 0 of 18).
For T28Q S31E A101T S107V, the assay gave 770 pM (6 of 6 replicates; controls 1 of 18).
For S31D G61T R100K, the assay gave 1.1 nM (6 of 6 replicates; controls 0 of 18).
For T28D R100W A101T S107A, the assay gave 1.2 nM (6 of 6 replicates; controls 0 of 18).
For T28N S63D R100K A101T, the assay gave 1.2 nM (6 of 6 replicates; controls 0 of 18).
For G26H T28S G61H R100Q A101T, the assay gave 1.4 nM (6 of 6 replicates; controls 0 of 18).

The parent sequence was in this pool as ten entries: three were never detected, three once, and four in most replicates, with averages from 2.2 nM to 240 nM. A sequence measured in both rounds can read differently, since the two assays cover different ranges. In the paper, a design with two or fewer of six values counts as a poor binder. Empty control strains, which show no peptide, gave a signal in 1% of pairings with all heavy chain designs; the median was 120 nM and 95% of these signals were weaker than 7.0 nM. No background was subtracted. For each scFv, signals with the empty controls are counted beside the result.